Assay: Radiolabeling kinetics of trastuzumab-ligand conjugates with 205/6Bi (SE-HPLC after DTPA challenge)
Assay type: physicochemical
Settings: at 24 h (as printed in text)

C-DOTA-trastuzumab: C-DOTA-NCS (Macrocyclics, TX) conjugated to Herceptin, for comparison
radiolabeling with 205/6Bi, not complete: 60.2±8.0%

Reference: patent publication US10189803B2, “Synthesis of therapeutic and diagnostic drugs centered on regioselective and stereoselective ring opening of aziridinium ions” (ILLINOIS INSTITUTE OF TECHNOLOGY, priority 2008, dated 2019)
